The text below walks through data of PMC8957230 (ADMET & DMPK, 2019).

For this data set the following is noted: pH 4 phthalate buffer; initial (bulk) pH 3.96; average of two.

Turning to `CC(=O)N1CCN(c2ccc(OCC3COC(Cn4ccnc4)(c4ccc(Cl)cc4Cl)O3)cc2)CC1` (stereo not shown), the “pH h=0 (slurry pH)” value was 4.38.
